According to patent US20080207574A1 (UNIVERSITY OF KENTUCKY RESEARCH FOUNDATION, published 2008):

Biological target: 43 kDa β-actin (bovine, UniProt P60712 2-375)
Experiment: co-isolation from BAEC lysate on NEUTRAVIDIN affinity column by way of WFA-B-labelled vimentin, SDS-PAGE with Coomassie stain

B1: vimentin (56 kDa protein) from bovine aortic endothelial cells, modified by WFA-B (other)
chain: STRSVSSSSYRRMFGGPGTASRPSSTRSYVTTSTRTYSLGSALRPTTSRTLYTSSPGGVYATRSSAVRLRSGVPGVRLLQDSVDFSLADAINTEFKNTRTNEKVELQELNDRFANYIDKVRFLEQQNKILLAELEQLKGQGKSRLGDLYEEEMRELRRQVDQLTNDKARVEVERDNLAEDIMRLREKLQEEMLQREEAESTLQSFRQDVDNASLARLDLERKVESLQEEIAFLKKLHDEEIQELQAQIQEQHVQIDMDVSKPDLTAALRDVRQQYESVAAKNLQEAEEWYKSKFADLSEAANRNNDALRQAKQESNEYRRQVQTLTCEVDALKGTNESLERQMREMEENFSVEAANYQDTIGRLQDEIQNMKEEMARHLREYQDLLNVKMALDIEIATYRKLLEGEESRISLPLPNFSSLNLRETNLDSLPLVDTHSKRTLLIKTVETRDGQVINETSQHHDDLE
modifications: covalent adduct of the biotinylated withaferin A analog WFA-B; the filing maps the WFA adduct to the sole cysteine (position 327 in hamster vimentin, 328 in human vimentin); not mapped on the bovine protein
notes: Endogenous full-length protein from a cell lysate; also called WFA-B-modified vimentin; intermediate filament type III protein vimentin
binding result: binds
